Results: BindingDB's records for doi:10.1021/acs.jmedchem.8b00327 (2019)

Molecular target: T1, Glutaminase kidney isoform, mitochondrial (Homo sapiens, UniProt O94925)
T1 sequence (O94925 whole entry): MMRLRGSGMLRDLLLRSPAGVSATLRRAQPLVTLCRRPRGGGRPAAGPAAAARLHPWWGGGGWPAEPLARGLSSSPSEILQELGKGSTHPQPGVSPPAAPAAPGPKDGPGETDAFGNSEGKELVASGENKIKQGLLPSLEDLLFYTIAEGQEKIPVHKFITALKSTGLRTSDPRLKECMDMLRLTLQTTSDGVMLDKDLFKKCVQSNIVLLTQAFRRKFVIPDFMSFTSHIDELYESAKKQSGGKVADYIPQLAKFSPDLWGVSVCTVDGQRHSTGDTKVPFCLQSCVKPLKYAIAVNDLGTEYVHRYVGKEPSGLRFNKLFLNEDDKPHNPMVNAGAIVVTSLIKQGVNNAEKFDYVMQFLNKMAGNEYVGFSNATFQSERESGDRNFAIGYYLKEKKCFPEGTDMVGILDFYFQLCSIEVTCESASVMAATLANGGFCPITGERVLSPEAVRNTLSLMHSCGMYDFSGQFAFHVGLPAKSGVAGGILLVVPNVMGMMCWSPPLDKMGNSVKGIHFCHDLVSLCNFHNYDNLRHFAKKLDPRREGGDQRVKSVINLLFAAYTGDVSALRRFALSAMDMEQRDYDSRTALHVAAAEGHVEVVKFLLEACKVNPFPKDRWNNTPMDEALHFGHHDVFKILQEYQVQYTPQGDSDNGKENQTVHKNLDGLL
Test: Inhibition of GAC (unknown origin) assessed as NADH formation using 10 mM glutamine as substrate preincubated for 60 mins

For O=C(Cc1ccccc1)Nc1nnc(CCCCc2nnc(NC(=O)Cc3ccccc3)o2)o1, the IC50 was over 20 µM.
